By UniProt entry, the sequences of proteins in these tests, tags left out. Where a name states a change or a piece, a line headed by the entry shows the natural chain unless it says otherwise.
UniProt P48065: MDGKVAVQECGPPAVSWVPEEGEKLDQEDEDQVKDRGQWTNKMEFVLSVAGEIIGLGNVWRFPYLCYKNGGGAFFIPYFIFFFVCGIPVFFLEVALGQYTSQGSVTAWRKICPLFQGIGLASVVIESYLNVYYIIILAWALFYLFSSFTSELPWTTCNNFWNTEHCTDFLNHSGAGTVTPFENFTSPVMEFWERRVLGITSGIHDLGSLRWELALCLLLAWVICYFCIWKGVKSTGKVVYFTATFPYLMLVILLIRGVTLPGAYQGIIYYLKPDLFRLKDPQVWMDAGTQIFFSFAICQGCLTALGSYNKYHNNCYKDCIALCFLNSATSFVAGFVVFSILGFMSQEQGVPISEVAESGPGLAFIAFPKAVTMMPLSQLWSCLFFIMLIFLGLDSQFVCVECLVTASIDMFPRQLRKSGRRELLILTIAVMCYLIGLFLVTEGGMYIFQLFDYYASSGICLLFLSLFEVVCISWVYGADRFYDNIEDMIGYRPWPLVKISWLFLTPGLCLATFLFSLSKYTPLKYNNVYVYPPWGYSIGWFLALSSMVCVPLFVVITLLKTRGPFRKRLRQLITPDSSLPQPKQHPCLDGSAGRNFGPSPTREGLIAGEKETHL

According to US5766848A (Synaptic Pharmaceutical Corporation, priority 1994, dated 1998):

Experiments:
human BGT-1 = target: T1, human BGT-1 (Homo sapiens, UniProt P48065); settings: read-out: IC50, human BGT-1, inhibition of [3H]GABA uptake
T1 sequence (P48065 1-614 C10Y): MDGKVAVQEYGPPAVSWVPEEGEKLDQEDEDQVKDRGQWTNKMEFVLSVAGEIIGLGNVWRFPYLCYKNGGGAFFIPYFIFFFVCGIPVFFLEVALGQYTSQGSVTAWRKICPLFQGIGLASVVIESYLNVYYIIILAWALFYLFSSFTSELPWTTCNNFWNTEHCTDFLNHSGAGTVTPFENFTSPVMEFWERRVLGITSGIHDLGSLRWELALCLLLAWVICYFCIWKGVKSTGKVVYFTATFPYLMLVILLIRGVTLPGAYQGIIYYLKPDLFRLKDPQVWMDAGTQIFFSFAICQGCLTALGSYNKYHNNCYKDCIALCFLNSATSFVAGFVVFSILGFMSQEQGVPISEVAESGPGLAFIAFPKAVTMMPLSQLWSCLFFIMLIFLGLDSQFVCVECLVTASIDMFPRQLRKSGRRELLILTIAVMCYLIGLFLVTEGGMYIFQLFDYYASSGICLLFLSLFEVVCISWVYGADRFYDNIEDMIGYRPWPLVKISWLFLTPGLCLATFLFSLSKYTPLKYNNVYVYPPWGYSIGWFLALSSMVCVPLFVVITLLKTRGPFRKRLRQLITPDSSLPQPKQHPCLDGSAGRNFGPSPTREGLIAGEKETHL

rat GAT-2 = target: T2, rat GAT-2 (Rattus norvegicus, UniProt P31646)
T2 sequence (P31646 1-602): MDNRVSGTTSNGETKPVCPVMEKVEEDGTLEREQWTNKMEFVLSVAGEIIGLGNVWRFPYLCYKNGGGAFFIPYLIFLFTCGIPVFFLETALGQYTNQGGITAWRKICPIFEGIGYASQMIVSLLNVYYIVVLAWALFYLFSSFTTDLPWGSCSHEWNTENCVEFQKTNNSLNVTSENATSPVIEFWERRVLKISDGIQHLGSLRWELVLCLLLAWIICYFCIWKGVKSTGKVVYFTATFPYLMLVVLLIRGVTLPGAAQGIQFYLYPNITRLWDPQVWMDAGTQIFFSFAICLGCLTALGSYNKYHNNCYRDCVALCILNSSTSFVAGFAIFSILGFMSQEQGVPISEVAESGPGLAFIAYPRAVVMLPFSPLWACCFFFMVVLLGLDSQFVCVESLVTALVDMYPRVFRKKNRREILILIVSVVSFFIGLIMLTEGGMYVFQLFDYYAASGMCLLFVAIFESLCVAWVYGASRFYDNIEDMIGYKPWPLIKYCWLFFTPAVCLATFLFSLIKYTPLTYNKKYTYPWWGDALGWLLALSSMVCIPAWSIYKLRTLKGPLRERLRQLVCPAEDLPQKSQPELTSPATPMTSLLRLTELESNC

Row | Compound | IC50 (human BGT-1) | IC50 (rat GAT-2)
1 | O=C(O)[C@H]1CCCNC1 [(S)-nipecotic acid] | 6410 ± 213 µM | 763 ± 55 µM
2 | O=C(O)[C@@H]1CCCNC1 [(R)-nipecotic acid] |  | 19 ± 2 µM
3 | O=C(O)C1CCCN(CCC=C(c2ccccc2)c2ccccc2)C1 (stereo not shown) [SK&F 89976-A, N-(4,4-diphenyl-3-butenyl)-3-piperidinecarboxylic acid] |  | 550 ± 225 µM
